Measured values as given in patent US20040063686A1, “Carboxamide compounds and their use as antagonists of a human 11cby receptor” (priority 2000, published 2004).

Chains of the proteins cited; added tags and fusions are not shown.
UniProt Q99705, whole entry: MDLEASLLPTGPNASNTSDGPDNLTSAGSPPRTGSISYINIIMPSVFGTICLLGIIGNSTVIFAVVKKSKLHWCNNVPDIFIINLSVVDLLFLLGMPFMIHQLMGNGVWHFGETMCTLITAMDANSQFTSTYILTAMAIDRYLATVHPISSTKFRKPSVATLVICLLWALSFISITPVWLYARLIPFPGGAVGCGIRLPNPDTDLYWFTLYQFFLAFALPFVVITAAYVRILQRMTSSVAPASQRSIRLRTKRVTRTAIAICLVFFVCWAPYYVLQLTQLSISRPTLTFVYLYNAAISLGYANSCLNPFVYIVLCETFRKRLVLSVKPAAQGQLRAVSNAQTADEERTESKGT

Target: 11CBy receptors (Homo sapiens, UniProt Q99705)
Experiment: Radioligand binding assay, [125I]-Melanin Concentrating Hormone competition on membranes from HEK293 cells stably expressing 11CBy receptors
Conditions: [125I]-MCH 0.22 nM, 45 min at 37° C., pH 7.4, pKi calculated from IC50

pKi range: 7.5-7.8
Structure (SMILES): CC(C)N(CCOc1ccc(NC(=O)c2ccc(C3CCCCC3)cc2)c(F)c1)C(C)C
